{
  "source": "patent US12533425B2",
  "about": "“Methods and systems using peptides for targeting and mapping human nerves in image guided surgery, diagnostics and therapeutic delivery” (ALUME BIOSCIENCES, INC., priority 2019, dated 2026)",
  "tested_on": "human laryngeal nerve sections",
  "assay": "Dose response of FAM-HNP401 by topical application on human nerve sections, confocal",
  "note": "Residues, ends and D or L forms follow the SMILES beside them. *: point of attachment. Fluorescein(5-Mal) = O=C1OC2(c3ccc(O)cc3Oc3cc(O)ccc32)c2ccc(N3C(=O)CC(*)C3=O)cc21",
  "data": [
    {"smiles": "CC(=O)N[C@@H](CO)C(=O)NCC(=O)N[C@@H](CCC(N)=O)C(=O)N[C@H](C(=O)N1CCC[C@H]1C(=O)N[C@@H](Cc1c[nH]c2ccccc12)C(=O)N[C@@H](CCC(=O)O)C(=O)N[C@@H](CCC(=O)O)C(=O)N1CCC[C@H]1C(=O)N[C@@H](Cc1ccc(O)cc1)C(=O)N[C@@H](Cc1ccc(O)cc1)C(=O)N[C@H](C(=O)N[C@H](C(=O)N[C@@H](CCCCN)C(=O)N[C@@H](CCCCN)C(=O)N[C@@H](CO)C(=O)N[C@@H](CO)C(=O)NCC(=O)NCC(=O)N[C@@H](CSC1CC(=O)N(c2ccc3c(c2)C(=O)OC32c3ccc(O)cc3Oc3cc(O)ccc32)C1=O)C(N)=O)C(C)C)C(C)C)C(C)C", "note": "(some centres unmarked) [FAM-HNP401] (Ac-SGQVPWEEPYYVVKKSSGGC(Fluorescein(5-Mal))-NH2)", "values": [
      {"measurement": "concentration giving optimal nerve contrast", "setting": "topical 1 to 375 μM", "result": "50 to 100", "unit": "µM"},
      {"measurement": "concentration at which signal from human nerve saturates", "setting": "topical up to 375 μM", "result": "≤ 100", "unit": "µM"}
    ]}
  ]
}
